E-sel inducer = induces E-selectin expression in human endothelial cells; 0.37% of 260,000 active; P16581; AID 686992; activation, % at 7.58 µM; HUVEC E-selectin immunofluorescence imaging; normalized: neutral wells 0, TNF-alpha wells 100;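 active = mean E-selectin-positive cell signal at least 10% of the positive control, reached in at least 60% of replicates, without over 20% cell loss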
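System: HUVEC / Compound: single concentration / Signal: immunofluorescence imaging / Read-out: percent E-selectin-positive cells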
C2C12 statin = suppression of simvastatin myotoxicity | C2C12 myotubes + simvastatin, ATP luminescence, 48 h; scaled: DMSO 0, geranylgeraniol control 100 | rescue of ATP level, % at 7.49 µM | 0.78% of 330,000 active | AID 602340;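 active = mean ATP rescue above about 67%, or every replicate alone reaching that limit, limit read from the data, passing the limit was not always enough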;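 also: myotubes were challenged with 10 µM simvastatin during compound exposure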
UUG fidelity = modulators of start codon recognition fidelity in yeast; AID 602363; activity score, % at 18.7 µM; S. cerevisiae UUG-firefly luciferase reporter, luminescence/redox ratio; actives 0.13% (n = 350,000);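 active = replicate mean at a twofold rise or more, about +100% in these data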;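 note: firefly luciferase made from a UUG start codon reports start codon fidelity; reporter light over untreated wells divided by growth signal over untreated wells; some hits fall short of that in this replicate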
esBAF inh = SWI/SNF esBAF complex inhibition | mouse ES cells, Bmi1-luciferase knock-in reporter, 24 h; 100% = twice the neutral-well signal | reporter increase, % at 12.5 µM | 2% of 350,000 active; in the data active = activation above about 40%;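 also: a rise in the Bmi1 reporter signal indicates esBAF inhibition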
PglD DTNB = PglD (C. jejuni) enzyme inhibition. purified PglD enzyme, DTNB colorimetric CoA detection. inhibition, % at 12.5 µM. AID 602405. 0.098% of 360,000 active; in the data active = inhibition above about 16%, passing the limit was not always enough
PGC1a acetyl inh = PGC1a acetylation modulation, inhibitor mode | U2OS PGC1a acetylation, AlphaScreen anti-acetyl-lysine; with virally co-expressed GCN5 acetyltransferase | inhibition, % at 15.6 µM | 0.17% of 350,000 active;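 active = every replicate shows inhibition of at least 40%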
A number is an active result; - = inactive; . = no result given. A selection: hits, their analogues and other compounds. The true share with any hit is near 2.8%.

SMILES | E-sel inducer | C2C12 statin | UUG fidelity | esBAF inh | PglD DTNB | PGC1a acetyl inh
CCCC(C)C(=O)Nc1cc(S(=O)(=O)N2CCCCC2)ccc1N1CCOCC1 (configuration not stated) | - | - | - | - | - | -
CC(C)C(=O)Nc1cc(S(=O)(=O)N2CCOCC2)ccc1N1CCCCC1 | - | 108 | - | . | - | -
CN1CCN(C(=O)C[C@H]2C[C@H]3c4cc(NC(=O)Cc5ccncc5)ccc4O[C@H]3[C@@H](CO)O2)CC1 | - | - | . | - | - | -
C[C@@H]1CCCCO[C@H](CN(C)S(=O)(=O)c2cn(C)cn2)[C@H](C)CN([C@@H](C)CO)C(=O)c2cc(NC(=O)Nc3ccc(F)cc3)ccc2O1 | - | . | - | - | - | -
CC1(C)CC(=O)C(=Cc2cn(-c3ccccc3)nc2-c2ccc(Cl)cc2)C(=O)C1 | . | - | - | 83 | - | .
CC(C)C#Cc1cnc2c(c1)C(=O)N([C@H](C)CO)C[C@H](C)[C@H](CN(C)S(=O)(=O)c1cn(C)cn1)O2 | - | - | - | - | - | -
CC1(C)C(c2ccc(Cl)cc2)=[N+]([O-])C2(CCCC/C2=N\O)N1O (configuration not stated) | . | 116 | - | - | - | -
CCCCNC(=O)CSc1nc2ccc(N3CCOCC3)cc2c(=O)n1Cc1ccc(OC)cc1 | . | - | - | 64 | - | .
COCCNC(=O)CSc1nc2cc(OC)c(OC)cc2c(=O)n1Cc1ccc(OC)cc1 | . | - | - | - | - | -
COCCNC(=O)CSc1nc2ccc(N3CCOCC3)cc2c(=O)n1Cc1ccc(OC)cc1 | . | - | - | 78 | - | -
O=S(=O)(NCC[C@H]1CC[C@H](NS(=O)(=O)c2cccc(Cl)c2)[C@H](CO)O1)c1cccc(F)c1 | - | - | - | - | - | -
CCC(=O)NC[C@@H]1[C@@H](c2ccc(C3=CCCC3)cc2)[C@@H](CO)N1CC1CC1 | - | . | . | . | . | .
Cc1noc(C)c1NC(=O)N[C@@H]1C=C[C@@H](CC(=O)NCCCN(C)C)O[C@@H]1CO | - | - | . | - | . | -
COc1cc(NC(=O)c2cccs2)ccc1NC(=O)c1ccco1 | . | - | - | 92 | . | -
O=C(Nc1ccc(Cl)c(NC(=O)c2cccs2)c1)c1ccco1 | - | - | - | - | - | -
COc1cc(NC(=O)c2ccccc2Cl)ccc1NC(=O)c1ccco1 | . | . | - | 51 | - | -
CC(C)(C)[S@](=O)N1Cc2cc(C(=O)N3CCCCC3)nc(-c3cccc(C4=CCCC4)c3)c2[C@@H]1CCO | - | . | . | . | . | -
C/C=C/c1ccc([C@H]2[C@@H](CO)N(C(=O)NCCC)[C@@H]2CNC(=O)C2CCC2)cc1 | - | - | - | - | - | -
O=C(CSc1nncs1)Nc1ccc(N2CCCCC2)cc1 | - | - | - | 57 | - | -
C/C(=N/NC(=O)c1nnn(-c2nonc2N)c1-c1ccccc1)c1ccc2c(c1)OCO2 | - | - | - | - | - | -
C/C(=N\N=C(/N)c1nonc1N)c1ccc2c(c1)OCO2 | . | - | - | 61 | - | -
C[C@H](CO)N1C[C@H](C)[C@H](CN(C)C(=O)Nc2ccc(F)cc2)OCCCC[C@H](C)Oc2ccc(NC(=O)CCCN(C)C)cc2C1=O | - | . | - | - | - | -
COc1ccc(CCNC(=O)c2ccc3nc(N4CCCCC4)sc3c2)cc1OC | - | - | - | 51 | - | -
O=C(NCCc1ccc(Cl)cc1)c1ccc2nc(N3CCOCC3)sc2c1 | - | . | - | - | - | -
Cc1cc(C)c2nc(N3CCCC(C(=O)NCCCN4CCOCC4)C3)sc2c1 (configuration not stated) | - | . | . | . | . | -
COc1ccc2nc(N3CCCC(C(=O)NCCc4ccc(OC)c(OC)c4)C3)sc2c1 (configuration not stated) | . | - | - | 53 | - | .
COc1ccc2nc(N3CCCC(C(=O)NCCCN4CCN(C)CC4)C3)sc2c1 (configuration not stated) | . | - | - | - | - | 70
Cc1cc(C)c2nc(N3CCCC(C(=O)NCCN4CCOCC4)C3)sc2c1 (configuration not stated) | . | - | - | 68 | - | .
COCC(=O)N1[C@H](CO)[C@@H]2c3ccccc3N(C(=O)Nc3ccccc3F)C[C@@H]21 | - | - | - | - | - | -
COCCNC(=O)C[C@@H]1CC[C@@H](NC(=O)NC2CCCCC2)[C@H](CO)O1 | - | - | . | - | - | -

Compound activity as filed in PubChem.
